Data from ChEMBL document CHEMBL1143427, “Interactions of ceftobiprole with beta-lactamases from molecular classes A to D” (Antimicrob Agents Chemother, 2007).

Substrate: CC(C)(O/N=C(\C(=O)N[C@@H]1C(=O)N2C(C(=O)[O-])=C(C[n+]3ccccc3)CS[C@H]12)c1csc(N)n1)C(=O)O
Experiment: Ratio of Kcat to Km of Pseudomonas aeruginosa 18SH AmpC assessed as drug hydrolysis by spectrophotometry

B1: Beta-lactamase (Pseudomonas aeruginosa (strain ATCC 15692 / PAO1 / 1C / PRS 101 / LMG12228)), P24735 (protein)
chain: MRDTRFPCLCGIAASTLLFATTPAIAGEAPADRLKALVDAAVQPVMKANDIPGLAVAISLKGEPHYFSYGLASKEDGRRVTPETLFEIGSVSKTFTATLAGYALTQDKMRLDDRASQHWPALQGSRFDGISLLDLATYTAGGLPLQFPDSVQKDQAQIRDYYRQWQPTYAPGSQRLYSNPSIGLFGYLAARSLGQPFERLMEQQVFPALGLEQTHLDVPEAALAQYAQGYGKDDRPLRVGPGPLDAEGYGVKTSAADLLRFVDANLHPERLDRPWAQALDATHRGYYKVGDMTQGLGWEAYDWPISLKRLQAGNSTPMALQPHRIARLPAPQALEGQRLLNKTGSTNGFGAYVAFVPGRDLGLVILANRNYPNAERVKIAYAILSGLEQQGKVPLKR
B1 showed a kcat/Km of 15000 M⁻¹ s⁻¹.
